The data set has as its system medulloblastoma cells from ptc knockout mice. The settings on record: […] once-daily intraperitoneal.

For `CC1=C2C[C@H]3[C@@H](CC=C4C[C@@H](O)CC[C@@]43C)[C@@H]2CC[C@]12O[C@@H]1C[C@H](C)CN[C@H]1[C@H]2C` [cyclopamine], the “appearance of treated mice” value is recorded as “appeared healthy”.

Values taken from patent US6686388B2, “Regulators of the hedgehog pathway, compositions and uses related thereto” (priority 1999, dated 2004).
